Assay results taken from patent EP2764866A1, “Inhibitors of nedd8-activating enzyme” (IP Gesellschaft für Management mbH, priority 2013, dated 2014).

System: SLC34A2-ROS dependent signaling pathways in the HCC78 cells

C[C@@H](Oc1cc(-c2cnn(C3CCNCC3)c2)cnc1N)c1c(Cl)ccc(F)c1Cl [Crizotinib, 3-[(R)-1-(2,6-dichloro-3-fluoro-phenyl)-ethoxy]-5-(1-piperidin-4-yl-1-H -pyrazol-4-yl)-pyridin-2-ylamine]
activated caspase-3 levels (3-hour of drug treatment, Western Blot): significant dose-dependent induction
ROS phosphorylation (activation loop) and downstream SHP2, STAT3, AKT and ERK1/2 (3 hours of drug treatment, immunoblot): dose dependency inhibited
